Protein sequences, listed by entry. Tags and fused reporters are not part of them. Residues count along the entry.
UniProt P00784, 134-345 limits assumed: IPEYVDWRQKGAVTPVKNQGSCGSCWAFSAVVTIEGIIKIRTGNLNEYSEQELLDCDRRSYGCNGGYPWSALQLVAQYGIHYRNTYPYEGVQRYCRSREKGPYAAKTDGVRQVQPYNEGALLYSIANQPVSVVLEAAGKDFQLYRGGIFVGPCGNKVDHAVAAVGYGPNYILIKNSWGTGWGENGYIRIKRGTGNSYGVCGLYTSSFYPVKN

In patent publication US20180360810A1, “NUPHARIDINE COMPOUNDS AND DERIVATIVES THEREOF FOR THE TREATMENT OF CYSTEINE PROTEASE RELATED DISEASES” (B. G. NEGEV TECHNOLOGIES AND APPLICATIONS LTD., AT …, priority 2015, published 2018):

Biological target: Papain latex (Carica papaya, UniProt P00784)
Experiment: Papain inhibition assay, Casein FITC
Conditions: read-out: IC50 (Nanomolar); substrate Casein FITC; pH 6.5; molarity calculated on assumed molecular weight of 526 daltons; tested form: trifluoroacetate
Experimental: The assays were performed in triplicates using transparent 96 well plates (167008; Nunc, Roskilde, Denmark). Reaction mixture 100 μl contained: 35 μl reaction buffer (0.1 M phosphate buffer, pH 6.5), 50 μl of Casein FITC (C3777-25MG; sigma), serially dissolved in reaction buffer to concentrations ranging from 10 μg/100 μl to 1.25 μg/100 μl in the final reaction. Inhibitors dissolved in DMSO were added in 5 μl aliquots at final concentrations in reaction mixture ranging from 0.05 μg/μl to 0.005 μg/μl. In control reaction 5 μl DMSO was added. Papain (P3125-100 mg; sigma) stock of 5 μg/100 μl dissolved in reaction buffer was added last in a 10 μl aliquot at a final concentration of 0.5 μg/100 μl reaction mixture, just before the fluorometric measurement. The data was collected for 2.5 h every 90 sec. Initial reaction velocity in reactions containing various substrate concentrations ranging from 1.25 to 10 μg/μl were used to calculate the IC50 values. […]
Inhibition assays were performed in triplicates using 96 well plates transparent for Calpain, Trypsin, Papain, Cathepsin L and Cathepsin B (167008; Nunc, Roskilde, Denmark), or black for Cathepsin S, Cathepsin D and Insulyzin (ide) (Greiner 96 Polystyrol GRE96fb) according to manufacturers' instructions. […] Molarity of inhibitors were calculated based on assumed molecular weight of 526 daltons as a reference value for comparative evaluations.

SMILES: C1=[N+](CCCCc2ccccc2)CCCC12CCCS2 (stereo not shown)
- IC50: 78.5 nM
